Read-outs that look alike come from different tables or passages of the source.

Protein sequences, listed by entry. Tags and fused reporters are not part of them.
UniProt Q99808, whole entry: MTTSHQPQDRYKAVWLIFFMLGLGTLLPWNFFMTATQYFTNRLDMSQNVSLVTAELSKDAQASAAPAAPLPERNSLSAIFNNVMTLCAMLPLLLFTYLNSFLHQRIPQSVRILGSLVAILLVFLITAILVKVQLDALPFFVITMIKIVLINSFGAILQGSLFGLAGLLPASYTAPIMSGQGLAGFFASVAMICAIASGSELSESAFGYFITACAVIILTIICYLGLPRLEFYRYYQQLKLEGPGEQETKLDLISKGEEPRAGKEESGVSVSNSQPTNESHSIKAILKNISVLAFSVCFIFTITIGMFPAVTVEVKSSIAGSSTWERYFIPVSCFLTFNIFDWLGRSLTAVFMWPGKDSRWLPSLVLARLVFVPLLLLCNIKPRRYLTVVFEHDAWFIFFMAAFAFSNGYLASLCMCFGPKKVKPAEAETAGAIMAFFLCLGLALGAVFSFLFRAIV
UniProt Q12809, whole entry: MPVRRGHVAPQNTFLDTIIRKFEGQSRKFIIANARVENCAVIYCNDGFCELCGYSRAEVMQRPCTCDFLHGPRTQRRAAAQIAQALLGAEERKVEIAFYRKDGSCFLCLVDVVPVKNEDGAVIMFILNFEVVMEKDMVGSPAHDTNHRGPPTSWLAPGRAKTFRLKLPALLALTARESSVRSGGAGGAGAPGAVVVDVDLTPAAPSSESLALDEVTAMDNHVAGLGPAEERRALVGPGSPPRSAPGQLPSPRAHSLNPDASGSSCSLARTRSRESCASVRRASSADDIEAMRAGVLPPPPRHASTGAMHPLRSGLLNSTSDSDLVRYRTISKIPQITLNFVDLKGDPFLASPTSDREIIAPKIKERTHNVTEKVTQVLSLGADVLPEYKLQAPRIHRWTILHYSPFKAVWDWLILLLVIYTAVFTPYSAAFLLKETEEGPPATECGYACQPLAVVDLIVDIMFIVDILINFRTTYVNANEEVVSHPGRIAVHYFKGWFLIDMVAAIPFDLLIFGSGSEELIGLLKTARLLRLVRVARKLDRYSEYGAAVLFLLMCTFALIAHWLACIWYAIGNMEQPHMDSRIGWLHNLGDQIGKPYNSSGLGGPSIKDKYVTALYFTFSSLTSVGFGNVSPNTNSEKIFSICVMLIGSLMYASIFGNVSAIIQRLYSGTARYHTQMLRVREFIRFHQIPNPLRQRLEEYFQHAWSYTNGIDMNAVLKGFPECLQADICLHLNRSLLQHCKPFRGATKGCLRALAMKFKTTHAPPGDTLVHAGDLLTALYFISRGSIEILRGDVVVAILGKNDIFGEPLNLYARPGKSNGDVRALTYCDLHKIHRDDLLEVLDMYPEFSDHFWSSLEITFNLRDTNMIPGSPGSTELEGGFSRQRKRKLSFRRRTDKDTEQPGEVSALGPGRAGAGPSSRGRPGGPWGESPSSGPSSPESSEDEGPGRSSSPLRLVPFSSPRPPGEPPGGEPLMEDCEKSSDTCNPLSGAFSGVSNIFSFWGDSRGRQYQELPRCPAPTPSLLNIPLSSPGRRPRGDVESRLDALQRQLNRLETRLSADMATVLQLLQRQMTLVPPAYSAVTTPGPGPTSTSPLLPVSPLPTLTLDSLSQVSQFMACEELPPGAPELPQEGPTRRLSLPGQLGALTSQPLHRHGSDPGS

Among the data in US20230203058A1, “MACROCYCLIC DIAMINE DERIVATIVES AS ENT INHIBITORS FOR THE TREATMENT OF CANCERS, AND COMBINATION THEREOF WITH ADENOSINE RECEPTOR ANTAGONISTS” (ITEOS BELGIUM SA, priority 2020, published 2023) are IC50 values, retold here.

For series [1], the target named is T1, human ENT1 (Homo sapiens, UniProt Q99808). In words: Uridine transport inhibition assay (3H-uridine uptake in MDCKII-ENT1-LV cells). As to conditions: read-out: Uridine transport inhibition assay IC50, uridine 1 µM, 1 min at 25° C. It counts as cell-based. The text has this: The aim of this study was to determine the potency of equilibrative nucleoside transporter 1 (ENT1) inhibitors by measuring ENT1-mediated transport is the cellular uptake assay. The human ENT1 transporter can be stably expressed in Madin-Darby Canine Kidney II (MDCKII) cells via transduction. Uridine is efficiently transported by ENT1 and is used as probe in the assay as 3 H-uridine. The interaction is detected as the modulation of the initial rate of 3 H-uridine transport by human ENT1 into MDCKII-ENT1-LV cells stably expressing ENT1 uptake transporter.

The test system of series [2] is stimulated primary human T cells. In words: T cell proliferation assay (rescue of proliferation in presence of ATP, CFSE dilution). The settings on record: 100 uM ATP. On the procedure:
The aim of this study was to determine the potency of equilibrative nucleoside transporter 1 (ENT1) inhibitors to rescue proliferation by stimulated primary human T cells incubated in the presence of 100 uM Adenosine triphosphate (ATP), in baseline conditions (condition A) or in the presence of various proteins known to bind small molecules (condition B). Condition A: X-VIVO15 Condition B: X-VIVO15, 2% Human Serum Albumine (HSA) and 0,1% α-1-Acid Glycoprotein (AAG)
Cryopreserved purified human CD3+ T cells were thawed and washed twice with RPMI1640 medium, UltraGlutamine containing 10% hiFBS.
Cells were suspended in PBS containing 10% hiFBS. Cells were stained with CFSE by adding 2 µM solution in PBS, to get a final 1 µM CFSE solution. Cells were incubated while rotating for 5 minutes. Reaction was stopped by adding PBS with 10% FBS and cells were centrifuged for 5 minutes at 1500 rpm.
Cells were resuspended at 1.6 ×10^6 cells/mL, either in X-VIVO15 medium or in 4% Human Serum Albumin and 0,2% α-1-Acid Glycoprotein. 50 µL of cell suspension (8×10^4 T cells) was added to wells of sterile round-bottom 96-well plates. […] After 72 or 96 hours, proliferation was measured determined by CFSE dilution via flow cytometry.

Series [3] addresses T1, human ENT1. The series is described as follows: ENT1 binding assay (competition with Sahenta-DY647 on JAR cells). The settings on record: read-out: Binding Assay IC50, competition with Sahenta-DY647 100 nM, 4° C. The method, then: The present assay aims at showing that the compounds of the present invention can bind to human ENT1. The principle of the assay is a competition between the compounds of this invention and Sahenta-DY647, an ENT1 inhibitor that emits fluorescence (Ex = 630 nm, Em = 670 nm). By measuring the fluorescence at the end of the assay we could assess the binding potency of the compounds of the present invention.
JAR cells expressing ENT1 were bought from ATCC® (HTB-144TM). Cells were cultured in RPMI 1640 medium (LONZA®, #BE12-702F/U1) supplemented with 10% FBS (GIBCO®, #10270-106), 10 mM Hepes (LONZA®, #BE17-737E), 1 mM Sodium Pyruvate (LONZA®, #BE13-115E) and 2% Penicillin/Streptomycin (LONZA®, #DE17-603E) at 37° C. and 5% CO2. The assay was conducted on the following buffer: HBSS (LONZA®, #LO-527F) supplemented with 10 mM Hepes (LONZA®, #BE17-737E) and 0.1% BSA (Miltenyi®, #130-091-376) on the day of the assay. JAR cells were resuspended in the described buffer. Compounds of the present invention and Sahenta-DY647 were diluted 200X in the described buffer.
A total of 50000 cells were pre-incubated for 30 min at 4° C. with the compounds of the present invention before adding the corresponded IC90 of Sahenta-DY647 (100 nM) and incubate once more for 30 min at 4° C. […]

The target of another series is hERG ion channel (Homo sapiens, UniProt Q12809).

As to `COc1cc(C(=O)OC2CCCOc3cc(cc(OC)c3OC)C(=O)OCCCN3CCCN(CC2)CC3)cc(OC)c1OC` (racemic), the IC50 at human ENT1 [1] was 0.001 to 0.02 µM; in series [2] (read-out: (2) T Cell proliferation (Condition B) IC50, Condition B: X-VIVO15, 2% HSA and 0,1% AAG), under 0.001 µM; in series [2] (read-out: T Cell proliferation (Condition A) IC50, Condition A: X-VIVO15), under 0.0001 µM; on human ENT1 [3], 0.001 to 0.02 µM; against hERG ion channel, 0.8 µM.
